Reference: PubChem BioAssay AID488899 (Broad Institute, 2010)
Only a part is listed here, and it is no random draw. Some of these compounds have results that are not shown, active ones among them. Activity calls are given as the source filed them.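 The calls were made as follows: active = mean inhibition across replicates of 60% or more, whatever share of single replicates reaches that level; inconclusive = some that reach 60%, reason not given; inactive = mean inhibition across replicates below 60%.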

Experiment: MITF transcriptional activity suppression – cell-based, SK-MEL-5, single point, luciferase, primary screen (AID 488899)
Conditions: SK-MEL-5 TRPM1 promoter luciferase, 24 h; at 12.5 µM; active compounds read high

| SMILES | inhibition |
| --- | --- |
| CN1[C@@H]2CC[C@H]1CC(OC(=O)C(O)(c1ccccc1)c1ccccc1)C2 (stereo not given in full) | inactive: -7.63% |
| O=C(NCC1(N2CCCCC2)CCCCC1)c1cc([N+](=O)[O-])ccc1Cl | inactive: 6.52% |
| Cc1ccc(C(=O)NCC2(N3CCCCC3)CCCCC2)cc1 | inactive: -15.5% |
| COc1cc(SC)ccc1C(=O)NCC1(N(C)C)CCCCC1 | inactive: -0.435% |
| CCN(CC)CC(C)C(C)OC(=O)C(O)(c1ccccc1)c1ccccc1 (stereo not given) | inactive: 10.5% |
| CC(C)N1C(=O)CC2(CCN(CCOC(=O)C(O)(c3ccccc3)c3ccccc3)CC2)C1=O | inactive: -6.32% |
| CN(C)C1CCCC1OC(=O)C(O)(c1ccccc1)c1ccccc1 (stereo not given) | inactive: -4.68% |
| CN(C)c1ccc(C(=O)NCC2(N(C)C)CCCCC2)cc1 | inactive: 3.78% |
| Cc1ccccc1C(=O)NCC1(N2CCCCC2)CCCCC1 | inactive: 0.072% |
| COc1ccc(C(=O)NCC2(N(C)C)CCCCC2)cc1 | inactive: 2.34% |
| O=C(NCC1(N2CCCCC2)CCCCC1)c1cccc(Br)c1 | inactive: -11.9% |
| Cc1cc(C(=O)NCC2(N3CCCCC3)CCCCC2)ccc1[N+](=O)[O-] | inactive: -1.49% |
| CCN1CCCC(OC(=O)C2(O)c3ccccc3C=Cc3ccccc32)C1 (stereo not given) | inactive: 3.27% |
| O=C(NCC1(N2CCCCC2)CCCCC1)c1cc(F)c(F)cc1Cl | inactive: -10.1% |
| C=CCN1CCN(CCOC(=O)C(O)(c2ccccc2)c2ccccc2)CC1 | inactive: 3.26% |
| COc1cc(C(=O)NCC2(N(C)C)CCCCC2)c([N+](=O)[O-])cc1OC | inactive: -23.8% |
| CN(C)C1(CNC(=O)c2ccc(Br)cc2)CCCCC1 | inactive: -5.04% |
| O=C(NCC1(N2CCCCC2)CCCCC1)c1cccc(Cl)c1 | inactive: -10.5% |
| COc1ccc(Cl)cc1C(=O)NCC1(N(C)C)CCCCC1 | inactive: 4.3% |
| COc1cccc(C(=O)NCC2(N3CCCCC3)CCCCC2)c1 | inactive: 6.46% |
| O=C(OC1CN2CCC1CC2)C(CO)(c1ccccc1)c1ccccc1 (stereo not given) | inactive: -0.186% |
| O=C(OCCN1CCCC1)C(O)(c1ccccc1)c1ccccc1 | inactive: 1.06% |
| CC(C)Oc1ccc(C(=O)NCC2(N(C)C)CCCCC2)cc1 | inactive: -6.79% |
| CN(C)c1cccc(C(=O)NCC2(N(C)C)CCCCC2)c1 | inactive: 15% |
| COc1ccc(Br)c(C(=O)NCC2(N3CCCCC3)CCCCC2)c1 | inactive: -3.47% |
